Assay: Spasmolytic effect (inhibition of tetracor spasms)
Assay type: in vivo
Source text: The following test methods are used: Motility inhibition test: J. Borsy, E. Csanyi, J. Lazar: J. Arch. Int. Pharmacodyn. 124, 1-2 (1960); Inhibition of tetracor spasms: R. Benzinger, D. Hane: Arch. Int Pharmacodyn. 167, 245-249 (1967).

Spasmolytic effect T.I. (therapeutical index): 4.3
SMILES: CN1C(=O)OC(C)(C)C1=O [Trimetadion, reference compound]
